Laboratory results taken from PubChem BioAssay (NCI).
The list shows a part of the results, in another mix than the full data. The source holds several records for some structures; these can differ, active in one and inactive in another. Activity calls are given as the source filed them. Cut-off read from the data, not from the text of the source: active = growth inhibition above about 70%; inactive = the rest.

assay: NCI Yeast Anticancer Drug Screen. Data for the cln2 rad14 strain (AID 165);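 note: 0% = growth equal to vehicle treated cultures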; details: S. cerevisiae cln2 rad14 strain, at 50.0 µM, active compounds read high

SMILES	growth inhibition
CCOC(=O)NP(=O)(NC(=O)NOC)NC(=O)OCC	inactive: -3.4%
CC=C(c1ccc(N(CC)CC)cc1)c1ccc(N(CC)CC)cc1	inactive: -31.1%
N#CCN/C(N)=N/[N+](=O)[O-]	inactive: -32.4%
C#CCOP(=O)(CCl)N(CCCl)CCCl (configuration not stated)	inactive: 60.8%
O=P1(N(CCCl)CCCl)NCc2ccccc2O1 (configuration not stated)	inactive: -0.25%
Cc1ccc(C)c(S(=O)(=O)N(CCCl)CCCl)c1	inactive: -38.5%
Fc1cccc(NC2=NCC(CI)S2)c1 (configuration not stated)	inactive: 33.8%
CC(C)(C(=O)c1cc([N+](=O)[O-])cc([N+](=O)[O-])c1)c1cc([N+](=O)[O-])cc([N+](=O)[O-])c1	inactive: 16.8%
CCCC1OP(N)(=O)OCC1CC (configuration not stated)	inactive: -1.3%
Fc1ccc(NC2=NCC(CI)S2)c(F)c1 (configuration not stated)	inactive: 0.35%
CC(=O)SCC(Cl)Cl	inactive: -14.4%
CCOP1OCC(C)O1 (configuration not stated)	inactive: -4.4%
O=C(Nc1cc([N+](=O)[O-])cc([N+](=O)[O-])c1)c1cc([N+](=O)[O-])cc([N+](=O)[O-])c1	inactive: -5.1%
CS(=O)(=O)OC1CSCC1OS(C)(=O)=O (configuration not stated)	inactive: -22.6%
N/C(=N\[N+](=O)[O-])NNC=O	inactive: -51.1%
NC1=NC(c2ccccc2[N+](=O)[O-])P(=O)(Nc2ncccn2)S1 (configuration not stated)	inactive: -3.1%
O=C(O)c1cccc(N(CCCl)CCCl)c1	inactive: 23.3%
O=[As]c1ccc(F)cc1 (configuration not stated)	active: 99%
CCOC(=O)NC(c1ccc(OC)c(OC)c1)P(=O)(O)Nc1ncn[nH]1 (configuration not stated)	inactive: 10.5%

SMILES	growth inhibition
CCCOP(=S)(Nc1ccc(C)cn1)OCCC	inactive: -34.3%
c1ccc2c(c1)N=C1CCCC3CCCCC123 (configuration not stated)	inactive: 36.8%
CCN(CC)P1OCC(C)O1 (configuration not stated)	inactive: -35.6%
CC[As](=O)(O)O	inactive: -10%
Cn1c(=O)c([N+](=O)[O-])c(N=[N+]=[N-])c2ccccc21	active: 86.9%
C[As](C)SC(C)(C)C(N)C(=O)O (configuration not stated)	inactive: -11.1%
CCCCOP(N)(=O)OCCCC	inactive: 19.3%
O=[N+]([O-])c1ccc(N(CCS)c2ccc([N+](=O)[O-])cc2[N+](=O)[O-])c([N+](=O)[O-])c1	inactive: 5.6%
CC(=O)OC1CNP(=O)(N(CCCl)CCCl)OC1 (configuration not stated)	inactive: 4.1%
Cc1c([N+](=O)[O-])c(C)c(S(=O)(=O)c2c(C)c([N+](=O)[O-])c(C)c([N+](=O)[O-])c2C)c(C)c1[N+](=O)[O-]	inactive: 3.55%
CCOP1(=O)N=C(/N=C(\N)N(CC)CC)N(C)C1(C)C (configuration not stated)	inactive: -15.2%
O=C(O)C1C[N+]12C=CC=CC2=O (configuration not stated)	inactive: -58%
FC1(F)SC(Cl)C(Cl)(Cl)C1(F)F (configuration not stated)	inactive: -12.9%
O=P1(N(CCCl)CCCl)NC(CO)CO1 (configuration not stated)	inactive: -23.6%
O=[As]c1ccc(NC(=O)c2ccccc2)cc1 (configuration not stated)	inactive: -33%
CCCCCCCCCCCCCCCC(=O)OCC(COP(=O)(Oc1ccccc1)N(CCCl)CCCl)OC(=O)CCCCCCCCCCCCCCC (configuration not stated)	inactive: -5.65%
BrC1C2(SCCS2)[C@@H]2C[C@@H](c3ccccc32)C12SCCS2 (some centres not stated)	inactive: -10.3%
ClC1CCCCC1SCCCC1OCCO1 (configuration not stated)	inactive: 17.4%
